Experimental data published in PMC12874371, “Screening of FDA-Approved Small Molecules to Discover Inhibitors of the Pseudomonas aeruginosa Quorum-Sensing Enzyme, PqsE” (Biochemistry, 2026).

Chains of the proteins cited; added tags and fusions are not shown.
UniProt P20581, whole entry S285W: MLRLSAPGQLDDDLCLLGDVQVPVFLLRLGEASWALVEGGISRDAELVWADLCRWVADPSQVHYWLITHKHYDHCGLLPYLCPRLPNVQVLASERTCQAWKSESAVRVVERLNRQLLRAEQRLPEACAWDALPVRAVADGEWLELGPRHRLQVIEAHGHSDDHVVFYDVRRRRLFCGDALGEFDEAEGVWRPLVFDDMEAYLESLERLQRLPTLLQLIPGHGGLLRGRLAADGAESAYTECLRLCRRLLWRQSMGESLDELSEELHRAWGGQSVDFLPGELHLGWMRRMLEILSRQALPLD

Legend:
PqsE(S285W) = target: T1, PqsE(S285W) (Pseudomonas aeruginosa, UniProt P20581, S285W); type: biochemical; details: esterase assay
T1 construct: 6xHis (N); made in house; host or cells: E. coli BL21 (DE3), pET28b-6xHis-pqsE(S285W) (strain IT55)

intracellular PqsE = target: T2, intracellular PqsE (Pseudomonas aeruginosa, UniProt P20581); type: cell-based; details: 10 and 100 μM, 8 h growth
T2 construct: endogenous in cells; host or cells: P. aeruginosa UCBPP-PA14 wild type

PqsE = target: T3, PqsE (Pseudomonas aeruginosa, UniProt P20581); type: binding; details: dilution series, 2 μM PqsE, result in words
T3 construct: 6xHis (N); made in house; host or cells: E. coli BL21 (DE3), pET28b-6xHis-pqsE(WT) (strain SM776)

Row | SMILES | Potency against PqsE(S285W) compared to PqsE(WT) (PqsE(S285W); result in words) | Effect on acetophenone levels (intracellular PqsE) | Competition with BB562 probe, dose-response fluorescence polarization (PqsE) | Increase of IC50 against PqsE(S285W) versus PqsE(WT) (PqsE(S285W)) [fold]
1 | O=c1n(CCCN2CCN(c3cccc(Cl)c3)CC2)nc2ccccn12 [Trazodone] | less potent | no significant effect on acetophenone levels | did not reduce fluorescence polarization fully to baseline levels | 
2 | O=C(CCCCCCC(=O)Nc1ccccc1)NO [Vorinostat] |  |  |  | 10
